# Antibody variant affinities, Ab-14 heavy chain, assay B

From the AlphaSeq antibody data of Li et al. 2023 (doi:10.1038/s41467-023-39022-2), copy in the FLAb collection.

Binding partner: SARS-CoV-2 spike HR2 peptide, sequence PDVDLGDISGINAS.

Parent scFv Ab-14: VH joined to VL by the linker GGGGSGGGGSGGGGS. Changes lie in the heavy chain CDRs alone.
VH: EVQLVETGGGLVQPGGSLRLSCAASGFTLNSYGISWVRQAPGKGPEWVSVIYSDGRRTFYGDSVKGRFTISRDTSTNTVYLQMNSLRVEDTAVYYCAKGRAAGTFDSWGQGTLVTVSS
VL: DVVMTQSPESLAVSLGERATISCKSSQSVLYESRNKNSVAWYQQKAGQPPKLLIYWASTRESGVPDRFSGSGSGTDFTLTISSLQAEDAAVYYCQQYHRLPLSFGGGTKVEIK

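The starting antibody came from a phage panning campaign against this peptide. The variants were designed computationally from a first round of random CDR variants and then made and measured. Group labels follow the data file (Ctrl: baseline library sampled from a position-specific scoring matrix, with some repeated check sequences; Rand: our label for a block that the file lists under HC and that is probably the random mutants of the ten best first-round binders; En: ensemble of fine-tuned language models; GP: Gaussian process model; GPLM: also part of the Gaussian process libraries; HC: hill climbing; Gen: genetic algorithm; Gibbs: Gibbs sampling; a sequence that several methods proposed may carry one label only). Affinity was read by AlphaSeq, a pooled yeast mating assay with surface-displayed partners. Mating (16 h, 30 °C) was followed by selection of diploids and sequencing of their barcodes. The ratio of observed to expected reads was calibrated, replicate by replicate, on BCL2-family standards whose Kd was known from biolayer interferometry. Each pool was mated in six replicate cultures.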

Variants are written as CDR1, CDR2 and CDR3 of the heavy chain (limits as in the source). Parent: GFTLNSYGIS, VIYSDGRRTFYGDSVK, GRAAGTFDS.
This list holds designs with at most six substitutions.
Kd is apparent (estimated from mating counts) and averaged on the log scale over replicates with a signal. Smaller is tighter.
A pair that was not seen in any replicate is written "no signal"; this usually means weak binding, but a binder can also be missed.

- GFQLNDYGIS / VIYSDGRRTFYADSVK / GRAAGTFDE [GP_HC] -> 2.7 nM (6 of 6 replicates; controls 0 of 18)
- GFDLNSYGIS / VIYSDGRRTFYKDSVK / GKAAGTFDV [GP_Gibbs] -> 2.2 nM (6 of 6 replicates; controls 1 of 18)
- GFSLNSYGIS / VIYADGRRTFYGDQVK / GRAAGTFDS [GPLM_Gen] -> 770 pM (3 of 6 replicates; controls 0 of 18)
- GFTLNSYGIS / VIYSDGRRTFYGDDVK / GQLAGTFDS [GP_HC] -> no signal (0 of 6 replicates; controls 0 of 18)
- GFSLNEYGIS / VIYSDGRRTFYGDSVK / GRTAGTFDY [GP_Gen] -> 760 pM (6 of 6 replicates; controls 0 of 18)
- GFGLNEYGIS / VIYSDGRRTFYGDSVK / GNAAGTFDS [GP_Gen] -> 3.3 nM (6 of 6 replicates; controls 0 of 18)
- GFTLNDYGIS / VIYSDGRRTFYQDAVK / GNAAGTFDS [GP_HC] -> 30 nM (6 of 6 replicates; controls 0 of 18)
- GFQLNDYGIS / VIYSDGRRTFYIDNVK / GKAAGTFDS [GP_HC] -> 220 nM (4 of 6 replicates; controls 1 of 18)
- GFSLNEYGIS / VIYSDGRRTFYGDSVK / GQAAGTFDT [GPLM_Gen] -> 710 pM (6 of 6 replicates; controls 0 of 18)
- GFTLNSYGIS / VIYSDGRRTFYGDSVK / GQEAGTFDQ [GP_Gibbs] -> 5.3 nM (6 of 6 replicates; controls 0 of 18)
- GFDLNSYGIS / VIYSDGRRTFYLDSVK / GQAAGTFDS [GP_Gibbs] -> 320 nM (2 of 6 replicates; controls 0 of 18)
- DFTLNEYGIS / VIYSDGRRTFYGDSVK / GRAAVTFDQ [GP_HC] -> no signal (0 of 6 replicates; controls 0 of 18)
- GFTLESYGIS / VIYSDGRRTFYGDSVK / GRWAGTFIS [Ctrl] -> no signal (0 of 6 replicates; controls 0 of 18)
- GFSLNEYGIS / VIYSDGRRTFYCDSVK / GGAAGTFDR [GP_HC] -> 46 nM (5 of 6 replicates; controls 1 of 18)
- GNTLNSYGIS / VIYSDGRRTFYGDSHK / GRAAVTKDS [Ctrl] -> no signal (0 of 24 replicates; controls 2 of 72)
- GFHLNSYGIS / VIYSDGRRTFYADSVK / GQEAGTFDS [GPLM_Gen] -> 1.3 nM (6 of 6 replicates; controls 0 of 18)
- GFTLNEYGIS / VIYSDGRRTFYSDSVK / GRAADTFDS [Ctrl] -> no signal (0 of 6 replicates; controls 1 of 18)
- GFSLNSYGIS / VIYSDGRRTFYGDSVK / GITAGTFDT [GPLM_Gen] -> 830 pM (6 of 6 replicates; controls 0 of 18)
- GFALNSYGIS / VIYSDGRRTFYGDSVK / GQTAGTFDS [GPLM_Gen] -> 11 nM (6 of 6 replicates; controls 1 of 18)
- GFNLNSYGIS / VIYSDGRRTFYKDSVK / GKQAGTFDS [GP_Gen] -> 25 nM (5 of 6 replicates; controls 1 of 18)
- GFNLNSYGIS / VIYSDGRRTHYGDSVK / GFAAGQFDS [Ctrl] -> no signal (0 of 6 replicates; controls 0 of 18)
- KFTLNSYGIS / VIYSDGRRTFYGDSVK / GRAAGTFCS [Ctrl] -> no signal (0 of 6 replicates; controls 0 of 18)
- GFSLNEYGIS / VIYSDGRRTFYHDSVK / GRAAVTFDQ [GP_HC] -> no signal (0 of 6 replicates; controls 0 of 18)
- GFTLNSYGIS / VIYSDGRRTFYVDSVK / RHAAGTFDS [Ctrl] -> no signal (0 of 6 replicates; controls 0 of 18)
- GFTLESYGIS / VIYSDGRRTFYLDSVK / GQGAGTFDS [GP_HC] -> no signal (0 of 6 replicates; controls 0 of 18)
- GFTLNSYGIS / VIYSDGRRTFYDDSVK / GQTAGMFDS [GPLM_HC] -> no signal (0 of 6 replicates; controls 0 of 18)
- GNTLNSYGIS / VIYSDGRRTFYGDSVK / GRAAGYFDS [Ctrl] -> no signal (0 of 6 replicates; controls 1 of 18)
- GFTNNDYGIS / VIYSDGRRTFYGDSVK / GRAARTFIS [Rand] -> no signal (0 of 6 replicates; controls 0 of 18)
- GFDLNSYGIS / VIYSDGRRTFYDDSVK / GQLAGTFDS [GPLM_HC] -> 130 nM (1 of 6 replicates; controls 0 of 18)
- GFTLNEYGIS / VIYSDGRRTFYGDSVK / GFAAGTFDT [GP_HC] -> 2.4 nM (6 of 6 replicates; controls 0 of 18)
- GFTLESYGIS / VIYSDGRREFYGDSVK / GRAAQTFDS [Ctrl] -> no signal (0 of 6 replicates; controls 0 of 18)
- GFDLNSYGIS / VIYSDGRRTFYQDMVK / GEAAGTFDT [GP_Gibbs] -> 15 nM (6 of 6 replicates; controls 3 of 18)
- GFDLNSYGIS / VIYSDGRRTFYLDSVK / GRLAGTFDS [GP_HC] -> 10 nM (6 of 6 replicates; controls 0 of 18)
- GFTLNEYGIS / VIYSDGRRTFYGDSVK / GRCAVTFDQ [GPLM_HC] -> no signal (0 of 6 replicates; controls 0 of 18)
- GFQLNEYGIS / VIYSDGRRTFYGDSVK / GHAAGTFDS [GPLM_Gen] -> 30 nM (6 of 6 replicates; controls 0 of 18)
- GFTLLSYGIS / VIYSDGRRTFYIDSVK / RRAAGTFDS [Ctrl] -> no signal (0 of 6 replicates; controls 0 of 18)
- GFTLNSYGIS / VIYADGRRTFYGDSVK / GRLAGTFWI [GP_HC] -> no signal (0 of 6 replicates; controls 0 of 18)
- GTTLNSYGIS / VIYSDGRRTFYGDSVR / GRAAGTFDS [Ctrl] -> 37 nM (1 of 6 replicates; controls 0 of 18)
- GFTLNEYGIS / VIYRDGRRTMYGDSVK / GRAAGNFDS [Ctrl] -> no signal (0 of 6 replicates; controls 0 of 18)
- GFTLNSYGIS / VIYSDGRRTFYKDSVK / GKEAGTFDS [Ctrl+GP_Gen] -> 3.5 nM (12 of 12 replicates; controls 1 of 36)
- GFTLNSYGIS / VIYSDGRRTFYGDSVK / GRLAGTFPS [Ctrl] -> no signal (0 of 6 replicates; controls 0 of 18)
- GFTLNSYGIS / VIYSDGFRTFYGDSVK / GRAASTFDS [Ctrl] -> no signal (0 of 6 replicates; controls 0 of 18)
- GFDLNEYGIS / VIYADGRRTFYADSVK / GNAAGTFDV [En_HC] -> 4.4 nM (6 of 6 replicates; controls 0 of 18)
- GFELNEYGIS / VIYSDGRRTFYADSVK / GRQAGTFDS [GPLM_Gen] -> 1.7 nM (6 of 6 replicates; controls 0 of 18)
- GFTLDSYKIS / VIVSDGRRTFYGDSVK / GRAAGTALS [Rand] -> no signal (0 of 6 replicates; controls 0 of 18)
- GFDLNMYGIS / VIYSDGRRTFYGDSVK / GNAAGTFDS [GP_Gibbs] -> no signal (0 of 6 replicates; controls 0 of 18)
- GFSLNDYGIS / VIYSDGRRTFYGDAVK / GRTAGTFDS [GPLM_Gen] -> 1.5 nM (6 of 6 replicates; controls 2 of 18)
- GFDLNSYGIS / VDYSDGRRTFYTDSVS / GRNATTFDS [Ctrl] -> no signal (0 of 6 replicates; controls 0 of 18)
- GFDLNSYGIS / VIYSDGRRTFYLDSVK / GRAAGTFDS [Ctrl] -> 4.4 nM (6 of 6 replicates; controls 1 of 18)
- GFSLNEYGIS / VIYSDGRRTMYGDSVK / GRCAGTFDS [GP_HC] -> 6.5 nM (6 of 6 replicates; controls 0 of 18)

The opening 4 entries, copied out:

{"CDR-H1": "GFQLNDYGIS", "CDR-H2": "VIYSDGRRTFYADSVK", "CDR-H3": "GRAAGTFDE", "group": "GP_HC", "Kd": "2.7 nM", "seen in": "6 of 6", "control signals": "0 of 18"}
{"CDR-H1": "GFDLNSYGIS", "CDR-H2": "VIYSDGRRTFYKDSVK", "CDR-H3": "GKAAGTFDV", "group": "GP_Gibbs", "Kd": "2.2 nM", "seen in": "6 of 6", "control signals": "1 of 18"}
{"CDR-H1": "GFSLNSYGIS", "CDR-H2": "VIYADGRRTFYGDQVK", "CDR-H3": "GRAAGTFDS", "group": "GPLM_Gen", "Kd": "770 pM", "seen in": "3 of 6", "control signals": "0 of 18"}
{"CDR-H1": "GFTLNSYGIS", "CDR-H2": "VIYSDGRRTFYGDDVK", "CDR-H3": "GQLAGTFDS", "group": "GP_HC", "Kd": "no signal", "seen in": "0 of 6", "control signals": "0 of 18"}

The authors averaged sequences with at least three values out of six and counted those with two or fewer as poor binders.
Three control strains display no target. For all heavy chain designs, 1% of the pairings with them gave a signal, with a median of 120 nM and one signal in twenty below 7.0 nM, so weak values seen in few replicates may be background. The control count says in how many pairings with the empty strains this scFv gave a signal.
The parent sequence was in this pool as ten entries: three were never detected, three once, and four in most replicates, with averages from 2.2 nM to 240 nM.
Where one sequence has several entries in the source, the replicates are pooled.
A sequence measured in both rounds can read differently, since the two assays cover different ranges.